# Test results as given in patent US9694016B2 (Novartis AG, priority 2013, dated 2017).
# By UniProt entry, the sequences of proteins in these tests, tags left out.
# UniProt P04049, whole entry Y340E/Y341E: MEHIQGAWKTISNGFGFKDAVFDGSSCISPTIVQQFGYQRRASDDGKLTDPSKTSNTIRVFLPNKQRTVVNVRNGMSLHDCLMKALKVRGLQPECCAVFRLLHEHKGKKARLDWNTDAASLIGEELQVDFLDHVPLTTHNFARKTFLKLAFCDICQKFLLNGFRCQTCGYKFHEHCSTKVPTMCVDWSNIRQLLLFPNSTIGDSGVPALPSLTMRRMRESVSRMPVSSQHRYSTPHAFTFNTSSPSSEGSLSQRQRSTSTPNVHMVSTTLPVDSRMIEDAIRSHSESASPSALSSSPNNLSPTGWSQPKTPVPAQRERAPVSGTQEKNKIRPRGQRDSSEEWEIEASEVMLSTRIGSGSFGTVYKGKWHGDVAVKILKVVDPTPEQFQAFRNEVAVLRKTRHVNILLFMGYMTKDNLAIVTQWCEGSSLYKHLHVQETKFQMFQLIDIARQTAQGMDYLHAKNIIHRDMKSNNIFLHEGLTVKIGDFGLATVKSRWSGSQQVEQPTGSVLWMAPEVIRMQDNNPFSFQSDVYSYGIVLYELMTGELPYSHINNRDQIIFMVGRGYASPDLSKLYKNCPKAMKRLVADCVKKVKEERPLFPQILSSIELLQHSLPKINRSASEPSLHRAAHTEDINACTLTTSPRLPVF
# Target: C-Raf FL (full-length C-Raf protein, Y340E and Y341E activating mutations) (Homo sapiens (Human), UniProt P04049, Y340E/Y341E)
# Assay type: biochemical
# Settings: AlphaScreen, 60 min pre-incubation, reaction 1 hour at room temperature; read-out: c-Raf FL IC-50
row,SMILES,IC50 [nM]
1,"Cc1ccc(NC(=O)c2cnncc2C(F)F)cc1-c1cc(N2CCOCC2)nc(N2CC(O)C2)c1 [Example 1075, 5-(difluoromethyl)-N-(3-(2-(3-hydroxyazetidin-1-yl)-6-morpholinopyridin-4-yl)-4-methylphenyl)pyridazine-4-carboxamide]",120
2,"Cc1ncc(NC(=O)c2ccnc(C(C)(F)F)c2)cc1-c1cc(N2CCOCC2)nc(N2CC(O)C2)c1 [Example 1080, 2-(1,1-difluoroethyl)-N-(2′-(3-hydroxyazetidin-1-yl)-2-methyl-6′-morpholino-[3,4′-bipyridin]-5-yl)isonicotinamide]",2.42
3,"Cc1ncc(NC(=O)c2ccnc(C(C)C)c2)cc1-c1cc(N2CCOCC2)nc(N2CC(O)C2)c1 [Example 1081, N-(2′-(3-hydroxyazetidin-1-yl)-2-methyl-6′-morpholino-[3,4′-bipyridin]-5-yl)-2-isopropylisonicotinamide]",2.01
4,"Cc1ncc(NC(=O)c2ccnc(C(C)(C)O)c2)cc1-c1cc(N2CCOCC2)nc(N2CC(O)C2)c1 [Example 1082, N-(2′-(3-hydroxyazetidin-1-yl)-2-methyl-6′-morpholino-[3,4′-bipyridin]-5-yl)-2-(2-hydroxypropan-2-yl)isonicotinamide]",10.5
5,"Cc1ncc(NC(=O)c2ccnc(C(C)(C)C#N)c2)cc1-c1cc(N2CCOCC2)nc(N2CC(O)C2)c1 [Example 1083, 2-(2-cyanopropan-2-yl)-N-(2′-(3-hydroxyazetidin-1-yl)-2-methyl-6′-morpholino-[3,4′-bipyridin]-5-yl)isonicotinamide]",5.4
6,"Cc1ncc(NC(=O)c2cccc(S(C)(=O)=O)c2)cc1-c1cc(N2CCOCC2)nc(N2CC(O)C2)c1 [Example 1084, N-(2′-(3-hydroxyazetidin-1-yl)-2-methyl-6′-morpholino-[3,4′-bipyridin]-5-yl)-3-(methylsulfonyl)benzamide]",3.39
7,"Cc1ncc(NC(=O)c2cc(CN(C)C)cc(C(F)(F)F)c2)cc1-c1cc(N2CCOCC2)nc(N2CC(O)C2)c1 [Example 1085, 3-((dimethylamino)methyl)-N-(2′-(3-hydroxyazetidin-1-yl)-2-methyl-6′-morpholino-[3,4′-bipyridin]-5-yl)-5-(trifluoromethyl)benzamide]",27.6
8,"CCn1cc(C(=O)Nc2cnc(C)c(-c3cc(N4CCOCC4)nc(N4CC(O)C4)c3)c2)cc(C(F)(F)F)c1=O [Example 1086, 1-ethyl-N-(2′-(3-hydroxyazetidin-1-yl)-2-methyl-6′-morpholino-[3,4′-bipyridin]-5-yl)-6-oxo-5-(trifluoromethyl)-1,6-dihydropyridine-3-carboxamide]",3.29
9,"CCN1CCN(c2cc(C(=O)Nc3cnc(C)c(-c4cc(N5CCOCC5)nc(N5CC(O)C5)c4)c3)cc(C(F)(F)F)c2)CC1 [Example 1087, 3-(4-ethylpiperazin-1-yl)-N-(2′-(3-hydroxyazetidin-1-yl)-2-methyl-6′-morpholino-[3,4′-bipyridin]-5-yl)-5-(trifluoromethyl)benzamide]",5.23
10,"Cc1ncc(NC(=O)c2ccnc(C(C)(C)C)c2)cc1-c1cc(N2CCOCC2)nc(N2CC(O)C2)c1 [Example 1089, 2-(tert-butyl)-N-(2′-(3-hydroxyazetidin-1-yl)-2-methyl-6′-morpholino-[3,4′-bipyridin]-5-yl)isonicotinamide]",20.4
11,"Cc1ncc(NC(=O)c2ccnc(S(C)(=O)=O)c2)cc1-c1cc(N2CCOCC2)nc(N2CC(O)C2)c1 [Example 1090, N-(2′-(3-hydroxyazetidin-1-yl)-2-methyl-6′-morpholino-[3,4′-bipyridin]-5-yl)-2-(methylsulfonyl)isonicotinamide]",12.7
12,"Cc1ncc(NC(=O)c2cccc(C(C)(C)S(C)(=O)=O)c2)cc1-c1cc(N2CCOCC2)nc(N2CC(O)C2)c1 [Example 1091, N-(2′-(3-hydroxyazetidin-1-yl)-2-methyl-6′-morpholino-[3,4′-bipyridin]-5-yl)-3-(2-(methylsulfonyl)propan-2-yl)benzamide]",295
13,"Cc1ccc(NC(=O)c2cccc(C(C)(C)S(C)(=O)=O)c2)cc1-c1cc(N2CCOCC2)nc(N2CC(O)C2)c1 [Example 1099, N-(3-(2-(3-hydroxyazetidin-1-yl)-6-morpholinopyridin-4-yl)-4-methylphenyl)-3-(2-(methylsulfonyl)propan-2-yl)benzamide]",3.17
14,"Cc1ncc(NC(=O)c2cnnc(C3CC3)c2)cc1-c1cc(N2CCOCC2)nc(N2CC(C)(O)C2)c1 [Example 1101, 6-cyclopropyl-N-(2′-(3-hydroxy-3-methylazetidin-1-yl)-2-methyl-6′-morpholino-[3,4′-bipyridin]-5-yl)pyridazine-4-carboxamide]",2.64

# Now those with a lower IC50, led by results:
row,IC50 [nM],SMILES
1,1.17,"Cc1ncc(NC(=O)c2cccc(C(F)F)c2)cc1-c1cc(N2CCOCC2)nc(N2CC(O)C2)c1 [Example 1079, 3-(difluoromethyl)-N-(2′-(3-hydroxyazetidin-1-yl)-2-methyl-6′-morpholino-[3,4′-bipyridin]-5-yl)benzamide]"
2,1.17,"Cc1ccc(NC(=O)c2ccnc(C(C)(C)O)c2)cc1-c1cc(N2CCOCC2)nc(N2CC(O)C2)c1 [Example 1098, N-(3-(2-(3-hydroxyazetidin-1-yl)-6-morpholinopyridin-4-yl)-4-methylphenyl)-2-(2-hydroxypropan-2-yl)isonicotinamide]"
3,1.12,"Cc1ncc(NC(=O)c2ccnc(C(F)(F)F)c2)cc1-c1cc(N2CCOCC2)nc(N2CC(O)C2)c1 [Example 1088, N-(2′-(3-hydroxyazetidin-1-yl)-2-methyl-6′-morpholino-[3,4′-bipyridin]-5-yl)-2-(trifluoromethyl)isonicotinamide]"
4,0.96,"Cc1ccc(NC(=O)c2ccnc(S(C)(=O)=O)c2)cc1-c1cc(N2CCOCC2)nc(N2CC(O)C2)c1 [Example 1097, N-(3-(2-(3-hydroxyazetidin-1-yl)-6-morpholinopyridin-4-yl)-4-methylphenyl)-2-(methylsulfonyl)isonicotinamide]"
5,0.9,"Cc1ncc(NC(=O)c2cc(C3CC3)on2)cc1-c1cc(N2CCOCC2)nc(N2CC(O)C2)c1 [Example 1093, 5-cyclopropyl-N-(2′-(3-hydroxyazetidin-1-yl)-2-methyl-6′-morpholino-[3,4′-bipyridin]-5-yl)isoxazole-3-carboxamide]"
6,0.86,"Cc1ccc(NC(=O)c2ccnc(C3(C#N)CC3)c2)cc1-c1cc(N2CCOCC2)nc(N2CC(O)C2)c1 [Example 1071, 2-(1-cyanocyclopropyl)-N-(3-(2-(3-hydroxyazetidin-1-yl)-6-morpholinopyridin-4-yl)-4-methylphenyl)isonicotinamide]"
7,0.82,"Cc1ncc(NC(=O)c2cccc(C(F)(F)F)c2)cc1-c1cc(N2CCOCC2)nc(N2CC(O)C2)c1 [Example 1094, N-(2′-(3-hydroxyazetidin-1-yl)-2-methyl-6′-morpholino-[3,4′-bipyridin]-5-yl)-3-(trifluoromethyl)benzamide]"
8,0.79,"Cc1ccc(NC(=O)c2ccnc(C(C)(F)F)c2)cc1-c1cc(N2CCOCC2)nc(N2CC(O)C2)c1 [Example 1078, 2-(1,1-difluoroethyl)-N-(3-(2-(3-hydroxyazetidin-1-yl)-6-morpholinopyridin-4-yl)-4-methylphenyl)isonicotinamide]"
9,0.73,"Cc1ccc(NC(=O)c2cnnc(C(F)(F)F)c2)cc1-c1cc(N2CCOCC2)nc(N2CC(O)C2)c1 [Example 1070, N-(3-(2-(3-hydroxyazetidin-1-yl)-6-morpholinopyridin-4-yl)-4-methylphenyl)-6-(trifluoromethyl)pyridazine-4-carboxamide]"
10,0.68,"Cc1ccc(NC(=O)c2cccc(-c3nnco3)c2)cc1-c1cc(N2CCOCC2)nc(N2CC(O)C2)c1 [Example 1100, N-(3-(2-(3-hydroxyazetidin-1-yl)-6-morpholinopyridin-4-yl)-4-methylphenyl)-3-(1,3,4-oxadiazol-2-yl)benzamide]"
11,0.57,"Cc1ccc(NC(=O)c2cccc(S(C)(=O)=O)c2)cc1-c1cc(N2CCOCC2)nc(N2CC(C)(O)C2)c1 [Example 1074, N-(3-(2-(3-hydroxy-3-methylazetidin-1-yl)-6-morpholinopyridin-4-yl)-4-methylphenyl)-3-(methylsulfonyl)benzamide]"
12,0.55,"Cc1ccc(NC(=O)c2cnnc(C(F)(F)F)c2)cc1-c1cc(N2CCOCC2)nc(N2CC(C)(O)C2)c1 [Example 1073, N-(3-(2-(3-hydroxy-3-methylazetidin-1-yl)-6-morpholinopyridin-4-yl)-4-methylphenyl)-6-(trifluoromethyl)pyridazine-4-carboxamide]"
13,0.46,"Cc1ccc(NC(=O)c2cccc(C(F)F)c2)cc1-c1cc(N2CCOCC2)nc(N2CC(O)C2)c1 [Example 1077, 3-(difluoromethyl)-N-(3-(2-(3-hydroxyazetidin-1-yl)-6-morpholinopyridin-4-yl)-4-methylphenyl)benzamide]"
14,0.45,"Cc1ccc(NC(=O)c2cccc(S(C)(=O)=O)c2)cc1-c1cc(N2CCOCC2)nc(N2CC(O)C2)c1 [Example 1096, N-(3-(2-(3-hydroxyazetidin-1-yl)-6-morpholinopyridin-4-yl)-4-methylphenyl)-3-(methylsulfonyl)benzamide]"
15,0.41,"Cc1ccc(NC(=O)c2ccnc(C(F)F)c2)cc1-c1cc(N2CCOCC2)nc(N2CC(C)(O)C2)c1 [Example 1072, 2-(difluoromethyl)-N-(3-(2-(3-hydroxy-3-methylazetidin-1-yl)-6-morpholinopyridin-4-yl)-4-methylphenyl)isonicotinamide]"
16,0.39,"Cc1ccc(NC(=O)c2cnnc(C3CC3)c2)cc1-c1cc(N2CCOCC2)nc(N2CC(C)(O)C2)c1 [Example 1076, 6-cyclopropyl-N-(3-(2-(3-hydroxy-3-methylazetidin-1-yl)-6-morpholinopyridin-4-yl)-4-methylphenyl)pyridazine-4-carboxamide]"
17,0.27,"Cc1ccc(NC(=O)c2cc(C3CC3)on2)cc1-c1cc(N2CCOCC2)nc(N2CC(O)C2)c1 [Example 1095, 5-cyclopropyl-N-(3-(2-(3-hydroxyazetidin-1-yl)-6-morpholinopyridin-4-yl)-4-methylphenyl)isoxazole-3-carboxamide]"
